Results taken from BindingDB's records for doi:10.1016/j.bmcl.2003.10.007 (Inotek Pharmaceuticals, 2003).
pIC50: −log10 of the molar value.

Test: Tested for inhibition of poly(ADP-ribose) polymerase-1 (PARP-1) in mouse using Cell protection assay

pIC50: 4.52
Compound: CCN(CC)CC(=O)Nc1cccc2c1CNC2=O [2-Diethylamino-N-(1-oxo-2,3-dihydro-1H-isoindol-4-yl)-acetamide]
